Reference: the supplement of paper PMC5998384

Key:
[1] = tested on: HeLa Kyoto; test: solubility in G1/S (NP-40 vs SDS abundance) (log2 ratio); higher = more soluble; details: cell cycle stage: G1/S
[2] = tested on: HeLa Kyoto; test: melting temperature (median over replicates), in situ; higher = more thermally stable
[3] = tested on: HeLa Kyoto; test: thermal stability score vs G1/S (z-score of summed log2 fold changes over temperatures); higher = more thermally stable than in G1/S
[4] = tested on: HeLa Kyoto; test: solubility change mitosis vs G1/S (difference of NP-40 vs SDS log2 ratios) (log2 ratio difference); higher = more soluble in mitosis
[5] = cell cycle stage: early G1 (4.5 h after nocodazole release)
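Wherever melting temperature (median over replicates), in situ is given: HeLa Kyoto cells synchronized by double thymidine or nocodazole block, proteins quantified by TMT10plex mass spectrometry, three independent biological replicates.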
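Wherever solubility change mitosis vs G1/S (difference of NP-40 vs SDS log2 ratios) is given: synchronized HeLa Kyoto cells (double thymidine block for G1/S, nocodazole release for mitosis), protein amounts in NP-40 versus SDS lysates quantified by mass spectrometry, three biological replicates.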
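Wherever solubility in G1/S (NP-40 vs SDS abundance) is given: HeLa Kyoto cells arrested at G1/S by double thymidine block, proteins quantified by TMT10plex mass spectrometry in mild NP-40 versus SDS extracts, three biological replicates.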
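Wherever thermal stability score vs G1/S (z-score of summed log2 fold changes over temperatures) is given: synchronized HeLa Kyoto cells, proteins quantified by TMT10plex mass spectrometry, three biological replicates, mitosis taken 0.5 h after nocodazole release, G1/S directly after double thymidine block.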

Question: What does the source list for “MASLLKVDQEVKLKVDSFRERITSEAEDLVANFFPKKLLELDSFLKEPILNIHDLTQIHSDMNLPVPDPILLTNSHDGLDGPTYKKRRLDECEEAFQGTKVFVMPNGMLKSNQQLVDIIEKVKPEIRLLIEKCNTVKMWVQLLIPRIEDGNNFGVSIQEETVAELRTVESEAASYLDQISRYYITRAKLVSKIAKYPHVEDYRRTVTEIDEKEYISLRLIISELRNQYVTLHDMILKNIEKIKRPRSSNAETLY [PSME3]”?
Answer: solubility in G1/S (log2) [1]: 0.175; melting temperature ([2]; cell cycle stage: G1/S): 53.5 °C; melting temperature ([2]; cell cycle stage: mitosis): 56.2 °C; thermal stability score [3, 5]: -1.26; thermal stability score ([3]; cell cycle stage: mitosis): -2.32; solubility change mitosis (log2) [4]: -0.0631

Question: With “MFRNQYDNDVTVWSPQGRIHQIEYAMEAVKQGSATVGLKSKTHAVLVALKRAQSELAAHQKKILHVDNHIGISIAGLTADARLLCNFMRQECLDSRFVFDRPLPVSRLVSLIGSKTQIPTQRYGRRPYGVGLLIAGYDDMGPHIFQTCPSANYFDCRAMSIGARSQSARTYLERHMSEFMECNLNELVKHGLRALRETLPAEQDLTTKNVSIGIVGKDLEFTIYDDDDVSPFLEGLEERPQRKAQPAQPADEPAEKADEPMEH [PSMA1]” as the sequence, how does the “solubility in G1/S (log2)” value [1] read?
Answer: The value was 0.506.

Question: What about the melting temperature ([2]; cell cycle stage: G1/S) of the same sequence?
Answer: The melting temperature was 56.7 °C.

Question: What about the melting temperature ([2]; cell cycle stage: mitosis) of the same sequence?
Answer: The melting temperature was 58.2 °C.

Question: What about the thermal stability score [3, 5] of the same sequence?
Answer: Its thermal stability score is -1.84.

Question: What about the thermal stability score ([3]; cell cycle stage: mitosis) of the same sequence?
Answer: The thermal stability score was -2.67.

Question: And the “solubility change mitosis (log2)” value [4]?
Answer: Its value is 0.0405.

Question: Which “solubility in G1/S (log2)” value [1] does the source give for “MGQSQSGGHGPGGGKKDDKDKKKKYEPPVPTRVGKKKKKTKGPDAASKLPLVTPHTQCRLKLLKLERIKDYLLMEEEFIRNQEQMKPLEEKQEEERSKVDDLRGTPMSVGTLEEIIDDNHAIVSTSVGSEHYVSILSFVDKDLLEPGCSVLLNHKVHAVIGVLMDDTDPLVTVMKVEKAPQETYADIGGLDNQIQEIKESVELPLTHPEYYEEMGIKPPKGVILYGPPGTGKTLLAKAVANQTSATFLRVVGSELIQKYLGDGPKLVRELFRVAEEHAPSIVFIDEIDAIGTKRYDSNSGGEREIQRTMLELLNQLDGFDSRGDVKVIMATNRIETLDPALIRPGRIDRKIEFPLPDEKTKKRIFQIHTSRMTLADDVTLDDLIMAKDDLSGADIKAICTEAGLMALRERRMKVTNEDFKKSKENVLYKKQEGTPEGLYL [PSMC1]” here?
Answer: The value was 0.335.

Question: What about the melting temperature ([2]; cell cycle stage: G1/S) of the same sequence?
Answer: The melting temperature was 53.3 °C.

Question: What about the melting temperature ([2]; cell cycle stage: mitosis) of the same sequence?
Answer: Its melting temperature is 52.4 °C.

Question: And the thermal stability score [3, 5]?
Answer: Its thermal stability score is 2.71.

Question: What about the thermal stability score ([3]; cell cycle stage: mitosis) of the same sequence?
Answer: Its thermal stability score is 1.79.

Question: What about the “solubility change mitosis (log2)” value [4] of the same sequence?
Answer: The value was -0.0938.

Question: “MIPPQEASARRREIEDKLKQEEETLSFIRDSLEKSDQLTKNMVSILSSFESRLMKLENSIIPVHKQTENLQRLQENVEKTLSCLDHVISYYHVASDTEKIIREGPTGRLEEYLGSMAKIQKAVEYFQDNSPDSPELNKVKLLFERGKEALESEFRSLMTRHSKVVSPVLILDLISGDDDLEAQEDVTLEHLPESVLQDVIRISRWLVEYGRNQDFMNVYYQIRSSQLDRSIKGLKEHFHKSSSSSGVPYSPAIPNKRKDTPTKKPVKRPGTIRKAQNLLKQYSQHGLDGKKGGSNLIPLEGLLPCTPRGGLPGPWINAACVCAADISPGHEHDFRVKHLSEALNDKHGPLAGRDDMLDVETDAYIHCVSAFVKLAQSEYQLLADIIPEHHQKKTFDSLIQDALDGLMLEGENIVSAARKAIVRHDFSTVLTVFPILRHLKQTKPEFDQVLQGTAASTKNKLPGLITSMETIGAKALEDFADNIKNDPDKEYNMPKDGTVHELTSNAILFLQQLLDFQETAGAMLASQETSSSATSYSSEFSKRLLSTYICKVLGNLQLNLLSKSKVYEDPALSAIFLHNNYNYILKSLEKSELIQLVAVTQKTAERSYREHIEQQIQTYQRSWLKVTDYIAEKNLPVFQPGVKLRDKERQIIKERFKGFNDGLEELCKIQKAWAIPDTEQRDRIRQAQKTIVKETYGAFLQKFGSVPFTKNPEKYIKYGVEQVGDMIDRLFDTSA [EXOC7]” was tested. Which “solubility in G1/S (log2)” value [1] did it give?
Answer: Its value is 0.199.

Question: And the melting temperature ([2]; cell cycle stage: G1/S)?
Answer: The melting temperature was 49.7 °C.

Question: What about the melting temperature ([2]; cell cycle stage: mitosis) of the same sequence?
Answer: Its melting temperature is 48.6 °C.

Question: What about the thermal stability score [3, 5] of the same sequence?
Answer: The thermal stability score was 0.666.

Question: What about the thermal stability score ([3]; cell cycle stage: mitosis) of the same sequence?
Answer: The thermal stability score was 1.11.

Question: What about the “solubility change mitosis (log2)” value [4] of the same sequence?
Answer: The value was -0.0918.

Question: Which results are given for “MPVAVMAESAFSFKKLLDQCENQELEAPGGIATPPVYGQLLALYLLHNDMNNARYLWKRIPPAIKSANSELGGIWSVGQRIWQRDFPGIYTTINAHQWSETVQPIMEALRDATRRRAFALVSQAYTSIIADDFAAFVGLPVEEAVKGILEQGWQADSTTRMVLPRKPVAGALDVSFNKFIPLSEPAPVPPIPNEQQLARLTDYVAFLEN [COPS8]”?
Answer: solubility in G1/S (log2) [1]: 0.393; melting temperature ([2]; cell cycle stage: G1/S): 53.2 °C; melting temperature ([2]; cell cycle stage: mitosis): 54.4 °C; thermal stability score [3, 5]: -2.77; thermal stability score ([3]; cell cycle stage: mitosis): -2.42; solubility change mitosis (log2) [4]: 0.00312

Question: How did the “solubility in G1/S (log2)” value [1] turn out when “MSGRPRTTSFAESCKPVQQPSAFGSMKVSRDKDGSKVTTVVATPGQGPDRPQEVSYTDTKVIGNGSFGVVYQAKLCDSGELVAIKKVLQDKRFKNRELQIMRKLDHCNIVRLRYFFYSSGEKKDEVYLNLVLDYVPETVYRVARHYSRAKQTLPVIYVKLYMYQLFRSLAYIHSFGICHRDIKPQNLLLDPDTAVLKLCDFGSAKQLVRGEPNVSYICSRYYRAPELIFGATDYTSSIDVWSAGCVLAELLLGQPIFPGDSGVDQLVEIIKVLGTPTREQIREMNPNYTEFKFPQIKAHPWTKVFRPRTPPEAIALCSRLLEYTPTARLTPLEACAHSFFDELRDPNVKLPNGRDTPALFNFTTQELSSNPPLATILIPPHARIQAAASTPTNATAASDANTGDRGQTNNAASASASNST [GSK3B]” was run?
Answer: Its value is 0.178.

Question: And the melting temperature ([2]; cell cycle stage: G1/S)?
Answer: The melting temperature was 51.6 °C.

Question: And the melting temperature ([2]; cell cycle stage: mitosis)?
Answer: Its melting temperature is 52.3 °C.

Question: And the thermal stability score [3, 5]?
Answer: Its thermal stability score is 0.263.

Question: And the thermal stability score ([3]; cell cycle stage: mitosis)?
Answer: Its thermal stability score is -1.16.

Question: What about the “solubility change mitosis (log2)” value [4] of the same sequence?
Answer: The value was -0.145.

Question: What does the source list for “MSRRKPASGGLAASSSAPARQAVLSRFFQSTGSLKSTSSSTGAADQVDPGAAAAAAAAAAAAPPAPPAPAFPPQLPPHIATEIDRRKKRPLENDGPVKKKVKKVQQKEGGSDLGMSGNSEPKKCLRTRNVSKSLEKLKEFCCDSALPQSRVQTESLQERFAVLPKCTDFDDISLLHAKNAVSSEDSKRQINQKDTTLFDLSQFGSSNTSHENLQKTASKSANKRSKSIYTPLELQYIEMKQQHKDAVLCVECGYKYRFFGEDAEIAARELNIYCHLDHNFMTASIPTHRLFVHVRRLVAKGYKVGVVKQTETAALKAIGDNRSSLFSRKLTALYTKSTLIGEDVNPLIKLDDAVNVDEIMTDTSTSYLLCISENKENVRDKKKGNIFIGIVGVQPATGEVVFDSFQDSASRSELETRMSSLQPVELLLPSALSEQTEALIHRATSVSVQDDRIRVERMDNIYFEYSHAFQAVTEFYAKDTVDIKGSQIISGIVNLEKPVICSLAAIIKYLKEFNLEKMLSKPENFKQLSSKMEFMTINGTTLRNLEILQNQTDMKTKGSLLWVLDHTKTSFGRRKLKKWVTQPLLKLREINARLDAVSEVLHSESSVFGQIENHLRKLPDIERGLCSIYHKKCSTQEFFLIVKTLYHLKSEFQAIIPAVNSHIQSDLLRTVILEIPELLSPVEHYLKILNEQAAKVGDKTELFKDLSDFPLIKKRKDEIQGVIDEIRMHLQEIRKILKNPSAQYVTVSGQEFMIEIKNSAVSCIPTDWVKVGSTKAVSRFHSPFIVENYRHLNQLREQLVLDCSAEWLDFLEKFSEHYHSLCKAVHHLATVDCIFSLAKVAKQGDYCRPTVQEERKIVIKNGRHPVIDVLLGEQDQYVPNNTDLSEDSERVMIITGPNMGGKSSYIKQVALITIMAQIGSYVPAEEATIGIVDGIFTRMGAADNIYKGQSTFMEELTDTAEIIRKATSQSLVILDELGRGTSTHDGIAIAYATLEYFIRDVKSLTLFVTHYPPVCELEKNYSHQVGNYHMGFLVSEDESKLDPGAAEQVPDFVTFLYQITRGIAARSYGLNVAKLADVPGEILKKAAHKSKELEGLINTKRKRLKYFAKLWTMHNAQDLQKWTEEFNMEETQTSLLH [MSH3]”?
Answer: solubility in G1/S (log2) [1]: -0.0694; melting temperature ([2]; cell cycle stage: G1/S): 50.8 °C; melting temperature ([2]; cell cycle stage: mitosis): 51.1 °C; thermal stability score [3, 5]: 0.443; thermal stability score ([3]; cell cycle stage: mitosis): 1.61; solubility change mitosis (log2) [4]: -0.11
